Experimental data reported in ChEMBL document CHEMBL1135731, “Synthesis and nicotinic binding studies on enantiopure diazine analogues of the novel (2-chloro-5-pyridyl)-9-azabicyclo[4.2.1]non-2-ene UB-165” (J Med Chem, 2002).
pKi: −log10 of the molar value.

Protein sequences, listed by entry. Tags and fused reporters are not part of them. Residues count along the entry.
UniProt Q05941, 23-502 limits assumed: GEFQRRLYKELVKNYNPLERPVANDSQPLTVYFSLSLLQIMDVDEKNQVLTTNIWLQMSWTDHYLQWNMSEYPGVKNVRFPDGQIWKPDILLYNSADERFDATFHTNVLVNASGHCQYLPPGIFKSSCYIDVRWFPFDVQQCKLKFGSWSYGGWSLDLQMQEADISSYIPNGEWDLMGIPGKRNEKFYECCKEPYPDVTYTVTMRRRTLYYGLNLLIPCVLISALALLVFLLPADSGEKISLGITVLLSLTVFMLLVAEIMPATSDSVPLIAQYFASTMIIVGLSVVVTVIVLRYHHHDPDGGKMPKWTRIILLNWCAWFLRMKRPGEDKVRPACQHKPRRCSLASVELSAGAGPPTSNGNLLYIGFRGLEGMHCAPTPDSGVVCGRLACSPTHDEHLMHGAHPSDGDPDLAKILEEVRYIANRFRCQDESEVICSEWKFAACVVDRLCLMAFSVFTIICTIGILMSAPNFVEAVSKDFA
UniProt P09483, 31-630 limits assumed: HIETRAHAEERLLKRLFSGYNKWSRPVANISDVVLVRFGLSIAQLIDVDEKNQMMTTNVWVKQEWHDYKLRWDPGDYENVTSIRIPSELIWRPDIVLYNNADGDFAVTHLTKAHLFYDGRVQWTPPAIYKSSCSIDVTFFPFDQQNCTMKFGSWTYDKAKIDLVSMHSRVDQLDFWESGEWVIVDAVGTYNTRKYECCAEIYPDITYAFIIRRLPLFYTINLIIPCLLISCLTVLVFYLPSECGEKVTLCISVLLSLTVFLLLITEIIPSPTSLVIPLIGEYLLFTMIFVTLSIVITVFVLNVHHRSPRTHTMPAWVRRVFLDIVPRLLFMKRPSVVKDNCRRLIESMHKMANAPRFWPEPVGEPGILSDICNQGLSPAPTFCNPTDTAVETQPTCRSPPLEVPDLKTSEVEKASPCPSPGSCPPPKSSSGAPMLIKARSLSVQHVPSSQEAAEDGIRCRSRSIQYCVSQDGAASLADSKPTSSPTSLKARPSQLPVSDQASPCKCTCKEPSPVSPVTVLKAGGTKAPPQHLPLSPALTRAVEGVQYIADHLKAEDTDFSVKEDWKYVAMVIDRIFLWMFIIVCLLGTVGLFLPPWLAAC
UniProt P12390, 25-500 limits assumed: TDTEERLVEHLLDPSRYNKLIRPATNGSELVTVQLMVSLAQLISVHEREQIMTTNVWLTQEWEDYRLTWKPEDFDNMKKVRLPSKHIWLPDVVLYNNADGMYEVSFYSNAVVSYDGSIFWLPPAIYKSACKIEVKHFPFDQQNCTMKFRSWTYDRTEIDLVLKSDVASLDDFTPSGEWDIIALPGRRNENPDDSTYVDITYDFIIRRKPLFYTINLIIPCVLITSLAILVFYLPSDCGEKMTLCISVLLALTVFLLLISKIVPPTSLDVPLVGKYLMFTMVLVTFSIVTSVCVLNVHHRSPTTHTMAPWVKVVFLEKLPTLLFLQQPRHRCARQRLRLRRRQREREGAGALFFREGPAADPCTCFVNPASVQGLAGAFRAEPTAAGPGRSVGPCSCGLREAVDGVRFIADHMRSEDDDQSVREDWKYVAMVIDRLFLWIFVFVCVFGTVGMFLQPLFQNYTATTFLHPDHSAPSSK

Tests used:
[1] = target: Neuronal acetylcholine receptor subunit alpha-7 (Rattus norvegicus, UniProt Q05941); assay: Binding affinity to subtype Nicotinic acetylcholine receptor alpha7 using [3H]-MLA as radioligand in rat brain
[2] = target: Neuronal acetylcholine receptor; alpha4/beta2 (Rattus norvegicus, UniProt P09483+P12390)

SMILES: CC(=O)C1=CCCC2CCC1N2 (configuration not stated)
- pKi [1]: 7.05
- pKi [2]: 8.96
